The results in this text go back to patent US20160152976A1, “COMPOUND ADMINISTRATION PRECURSOR AND MEDICAMENT CARRIER PREPARATION” (HitGen LTD., priority 2013, published 2016).

The test system of this data set is HepG2 cells.

With “4-bromo-3-oxoacetic acid-5-(3-(((1-(4-fluorescein 19 polyA)12-alkyl acetamidophenyl)-1H-1,2,3-triazole-4-methylene)(1-phenylcarbamoylpiperidine)-4-methyl)amino)phenyl)thiophene-2-formic add [compound 5]”, where the note is “X-tremeGENEsiRNA transfection reagent (FIG. 9)”, the transfer efficiency result is on record as “over 80%”. Further, the “transfer into cells and positioning in the cells” value (X-tremeGENEsiRNA transfection reagent, 6 h, laser confocal microscope (FIG. 8B)) is “may be transferred by the X-tremesiRNA into calls, with most of the compound 5 into the cytoplasm and a few of the compound 5 into the cell nucleus”.
